PubChem BioAssay AID2101 (National Center for Advancing Translational Sciences (NCATS), 2009)
Several values for one entry are separate records, joined by “and”; a condition that tells them apart may be missing. Equal values may be shown once. The entries are a selection whose mix differs from that of the whole data set. Results filed as inconclusive are left out. Activity calls are given as the source filed them. The call rests on the fitted dose curve; in most records, active means well fitted inhibition curve with a large enough effect; inconclusive means small, poorly fitted or top-dose-only effect, or effect the other way, or another doubt; inactive means no such curve, though single readings can be large or run the other way.

Target: Lysosomal acid glucosylceramidase (Homo sapiens) (UniProt P04062)
Experiment: qHTS Assay for Inhibitors and Activators of N370S glucocerebrosidase as a Potential Chaperone Treatment of Gaucher Disease;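 further: 0% = full enzyme activity and -100% = no enzyme basal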
Details: N370S GC spleen homogenate, 4MU-glucoside fluorescence; at 59.4 µM (top of the series)
Text: NIH Chemical Genomics Center [NCGC]
NIH Molecular Libraries Probe Production Centers Network [MLPCN]
Assay Submitter (PI): Wei Zheng
Glucocerebrosidase (GC) catalyzes the hydrolysis of beta-glucocerebroside to glucose and ceramide in lysosomes. Mutations in the glucocerebrosidase gene result in Gaucher disease, an autosomal recessive lysosomal storage disorder. Many of the mutations encountered in patients with Gaucher disease are missense alterations that may cause misfolding, decreased stability and/or mistrafficking of this lysosomal protein. […] These inhibitors include iminosugar analogs and three non-iminosugar inhibitors identified from a previous HTS of 62,000 compounds with the wild type recombinant enzyme. […]
This is a fluorogenic enzyme assay with 4-methylumbelliferyl-beta-D-glucopyranoside as the substrate and N370S glucocerebrosidase from human spleen homogenate as the enzyme preparation. Upon the hydrolysis of this fluorogenic substrate, the resulting product, […] which can be detected by a standard fluorescence plate reader. […] The AC50 values were determined from concentration-response data modeled with the standard Hill equation. […]
(6) Detect the assay plate in a ViewLux plate reader (PerkinElmer) with Ex=365 nm and Em=440nm. […]

SMILES	activity change, negative = inhibition
O=[N+]([O-])C(Cl)(Cl)Cl	inactive: 4.9%
CN(CCCl)CCCl	inactive: -4.05% and inactive: 8%
